From ChEMBL document CHEMBL1129498, “Azole endothelin antagonists. 2. Structure-activity studies” (J Med Chem, 1996)

Amino acid sequences for entries named in this document (tags omitted).
UniProt P26684, whole entry: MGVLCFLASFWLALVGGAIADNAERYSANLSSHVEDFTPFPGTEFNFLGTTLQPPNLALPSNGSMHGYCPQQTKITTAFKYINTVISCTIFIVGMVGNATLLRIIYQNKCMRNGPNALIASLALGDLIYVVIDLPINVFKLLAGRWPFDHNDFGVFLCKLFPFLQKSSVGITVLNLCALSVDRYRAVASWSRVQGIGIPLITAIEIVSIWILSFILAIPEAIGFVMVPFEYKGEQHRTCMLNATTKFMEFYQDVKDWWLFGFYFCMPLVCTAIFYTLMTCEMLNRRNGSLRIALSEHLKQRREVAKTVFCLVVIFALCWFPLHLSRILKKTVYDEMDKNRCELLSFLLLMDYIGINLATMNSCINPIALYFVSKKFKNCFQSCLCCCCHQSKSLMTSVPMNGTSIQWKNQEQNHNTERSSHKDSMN

Molecular target: Endothelin-1 receptor (Rattus norvegicus, UniProt P26684)
Assay: Inhibitory activity was evaluated against ET- A Binding to Endothelin A receptor in MMQ cell homogenates
Format: cell-free

IC50	SMILES
0.28 µM	Cc1[nH]c([C@@H](Cc2cn(C)c3ccccc23)NC(=O)[C@H](CC(C)C)NC(=O)N2CCCCCC2)nc1C(=O)O
23.3 µM	Cc1c(C(=O)O)nc([C@@H](Cc2c[nH]c3ccccc23)NC(=O)[C@H](CC(C)C)NC(=O)N2CCCCCC2)n1C
16.2 µM	Cc1c(C(=O)O)nc([C@@H](Cc2c[nH]c3ccccc23)NC(=O)[C@H](CC(C)C)NC(=O)N2CCCCCC2)n1Cc1ccccc1
